## Antibody variant affinities, Ab-14 heavy chain, assay B

All variants were tested on one target, the spike HR2 peptide PDVDLGDISGINAS (SARS-CoV-2).

Parent: Ab-14, a human scFv built as VH, a 15-residue (Gly4Ser)3 linker, VL. Only the CDRs of the heavy chain vary.
VH: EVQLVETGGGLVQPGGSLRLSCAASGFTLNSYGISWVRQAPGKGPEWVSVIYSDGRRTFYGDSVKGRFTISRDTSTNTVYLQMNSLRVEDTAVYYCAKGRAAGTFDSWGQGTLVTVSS
VL: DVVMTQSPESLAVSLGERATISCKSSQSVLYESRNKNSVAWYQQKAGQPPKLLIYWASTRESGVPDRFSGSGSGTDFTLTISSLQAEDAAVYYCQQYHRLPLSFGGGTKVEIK

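Phage display of a naive human antibody library on the peptide gave the parent. The variants were designed computationally from a first round of random CDR variants and then made and measured. Several design methods are mixed in this list. The scFvs were displayed on barcoded MATa yeast, the peptide on MATalpha yeast. Mating (16 h, 30 °C) was followed by selection of diploids and sequencing of their barcodes. Each replicate has its own calibration line, from reference interactions of the BCL2 family. Each pool was mated in six replicate cultures.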

Each variant is given by its three heavy chain CDRs, as the data file delimits them; those of the parent are GFTLNSYGIS, VIYSDGRRTFYGDSVK, GRAAGTFDS. The read-out is the apparent dissociation constant on a log10 scale (nM): the lower, the stronger. Replicates are averaged; those with no signal do not enter the mean. "no signal" means that the variant was in the library but no mating with the target was seen in any replicate; the authors take this as a sign of poor binding, and no number exists. The list is sorted by this average, lowest first, undetected variants last. As a blank, each scFv also met three strains without target: over all heavy chain designs, 1% of these pairings were detected, typically at 2.08 and seldom below 0.84. The authors averaged sequences with at least three values out of six and counted those with two or fewer as poor binders. A sequence measured in both rounds can read differently, since the two assays cover different ranges.

| CDR-H1 | CDR-H2 | CDR-H3 | mean, log10 nM | replicates with signal |
|---|---|---|---|---|
| GFDLNEYGIS | VIYADGKRTAYSDSVK | GTVAGTFDV | -1.13 | 6/6 |
| GFDLNEYGIS | VIYADGMRTAYSDDVK | GQNAGTFDL | -0.63 | 6/6 |
| GFDLNEYGIS | VIYADGRRTAYSDSVK | GEAAGTFDK | -0.60 | 6/6 |
| GFDLNEYGIS | VIYADGVRTAYADTVK | GNVAGTFDV | -0.57 | 6/6 |
| GFNLNEYGIS | VIYADGRRTFYADSVK | GNQAGTFDM | -0.50 | 6/6 |
| GFDLNEYGIS | VIYADGRRTAYSDSVK | GGNAGTFDE | -0.46 | 6/6 |
| GFDLNEYGIS | VIYADGLRTAYADSVK | GETAGTFDV | -0.42 | 6/6 |
| GFDLNEYGIS | VIYADGMRTFYTDSVK | GEHAGTFDS | -0.40 | 6/6 |
| GFDLDEYGIS | VIYADGMRTFYADSVK | GNIAGTFDM | -0.36 | 6/6 |
| GFDLNEYGIS | VIYADGKRTAYSDSVK | GNEAGTFDL | -0.15 | 6/6 |
| GFTLNEYGIS | VIYSDGRRTFYGDSVK | GRCAGTFDE | -0.12 | 2/6 |
| GFDLNEYGIS | VIYADGVRTAYADDVK | GEVAGTFDL | -0.11 | 6/6 |
| GFDLNEYGIS | VIYADGKRTAYADSVK | GETAGTFVQ | -0.07 | 6/6 |
| GFDLNEYGIS | VIYADGRRTQYIDSVK | GEAAGTFDI | 0.06 | 6/6 |
| GFELNSYGIS | VIYADGRRTFYGDQVK | GQAAGTFDS | 0.06 | 6/6 |
| GFTLNEYGIS | VIYSDGRRTFYSDSVK | GHAAGTFDA | 0.08 | 6/6 |
| GFNLNEYGIS | VIYADGRRTFYTDDVK | GEFAGTFDI | 0.11 | 6/6 |
| GFSLNDYGIS | VIYSDGRRTFYGDSVK | GRHAGTFDS | 0.23 | 4/6 |
| GFDLNSYGIS | VIYADGRRTFYSDSVK | GRAAFTFDS | 0.37 | 6/6 |
| GFSLNEYGIS | VIYSDGRRTFYVDSVK | GRHAGTFDS | 0.37 | 6/6 |
| GFDLDEYGIS | VIYADGMRTAYSDKVK | GEVAGTFDV | 0.38 | 6/6 |
| GFDLNEYGIS | VIYADGVRTAYADSVK | GGQAGTFDV | 0.41 | 6/6 |
| GFDLNEYGIS | VIYADGRRTFYADSVK | GEAAGTFVN | 0.48 | 6/6 |
| GFTLNSYGIS | VIYSDGRRTFYDDSVK | GLNAGTFDS | 0.56 | 4/6 |
| GFTLNSYGIS | VIYSDGRRTFYSDSVK | GRTAGTFDT | 0.59 | 6/6 |
| MFSLNSYGIS | VIYSDGRRTFYADSVK | GRTAGTFDS | 0.71 | 6/6 |
| GFELNSYGIS | VIYSDGRRTFYGDSVK | GKAAGTFDV | 0.74 | 5/6 |
| GFELNEYGIS | VIYSDGRRTFYGDNVK | GRTAGTFDS | 0.86 | 6/6 |
| GFTLNSYGIS | VIYSDGRRTFYIDSVK | GNVAGTFDS | 1.00 | 6/6 |
| GFQLNEYGIS | VIYSDGRRTFYTDSVK | GEEAGTFDS | 1.03 | 6/6 |
| GFTLNSYGIS | VIYSDGRRTFYGDSVK | GQVAGTFDS | 1.29 | 6/6 |
| GNTLNSYGIS | VIYSDGLRTFYHDSVK | GRAAGTFDS | 1.30 | 6/6 |
| GFDLNEYGIS | VIYADGMRTYYTESVK | GNIFDQLFV | 1.36 | 1/6 |
| GFVLNSYGIS | VIYSDGRRTFYGDSVK | GEAAGTFDT | 1.43 | 6/6 |
| MFTLESYGIS | VIYADGRRTFYGDSVK | GRAAGTFDS | 1.65 | 2/6 |
| HFSLDSYGIS | VIYSDGRRTAYGDKVK | GRLAGTFDV | 1.72 | 1/6 |
| GFMLNSYGIS | VIYSDGLRTFYIDKVK | GRAKGTFDS | 1.95 | 1/6 |
| KFKLNSYGIS | VIYADGRRTFYGDSVK | GRTAGTFDS | 1.98 | 6/6 |
| GFTLNSYGIS | VIYSDGRRTFYGDSVK | GRVAGTFSS | 2.25 | 1/6 |
| YFTLNEYGIS | VIYSDGRRTFYGDSVK | GRHAGTFDT | 2.32 | 3/6 |
| GFDLNEYGIS | VIYADGRRTFYADSVK | GENAGTILV | no signal | 0/6 |
| GFTLNSYGIS | VIYSDGRRTFYGDSVR | GDATGAFDS | no signal | 0/6 |
| GFTLNDYGIS | VIYSDGRRTMYGDSHK | GFAAGTSSS | no signal | 0/6 |
| KFTLKSYGIS | VIYSDGRRTAYGDSVK | GRASGTFDK | no signal | 0/6 |
| GVNLDEYGIS | VIYADGVRSHYAESVK | GQHGTFGVA | no signal | 0/6 |
| GFTLNDYGIS | VIYSDGRRTFYGDSVK | GRAAWTFDS | no signal | 0/6 |
| GFDLQEMGIS | VIYADGARKSYTNSVK | GVFGGQMDV | no signal | 0/6 |
| GFNLNEYGIS | VIYADGNRNFYADSVK | GLHANFFDI | no signal | 0/6 |
| GFGLNSYGIS | VIYSDGRRTFYGDQVK | GRTAGTFDS | no signal | 0/6 |
| GFGLNSYGIS | VIYSDGRRTFYGDSVK | GTAKGTFDT | no signal | 0/6 |
| GFTLNNYGIS | VIYFDGRRTFYGDSVK | GRAALTYIS | no signal | 0/6 |
| GFTLNSYGIS | VIYSDGLRTAYLDDVK | GRAKATFFS | no signal | 0/6 |

A selection of 3 entries from above:

| CDR-H1 | CDR-H2 | CDR-H3 | mean, log10 nM | replicates with signal |
|---|---|---|---|---|
| GFNLNEYGIS | VIYADGRRTFYTDDVK | GEFAGTFDI | 0.11 | 6/6 |
| GFTLNSYGIS | VIYSDGRRTFYIDSVK | GNVAGTFDS | 1.00 | 6/6 |
| GFTLNSYGIS | VIYSDGRRTFYGDSVR | GDATGAFDS | no signal | 0/6 |

The measurements come from Li et al. 2023 (doi:10.1038/s41467-023-39022-2) through the FLAb antibody collection.